## scFv variants of Ab-14 (light chain) against a SARS-CoV-2 spike peptide

From the AlphaSeq antibody data of Engelhart et al. 2022 (doi:10.1038/s41597-022-01779-4), copy in the FLAb collection.

Antigen: PDVDLGDISGINAS, a 14-residue peptide of the SARS-CoV-2 spike HR2 region.

Parent: Ab-14, a human scFv built as VH, the linker GGGGSGGGGSGGGGS, VL. Only the CDRs of the light chain vary.
VH: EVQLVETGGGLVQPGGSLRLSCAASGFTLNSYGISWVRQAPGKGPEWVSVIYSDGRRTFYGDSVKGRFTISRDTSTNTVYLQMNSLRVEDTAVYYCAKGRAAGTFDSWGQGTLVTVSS
VL: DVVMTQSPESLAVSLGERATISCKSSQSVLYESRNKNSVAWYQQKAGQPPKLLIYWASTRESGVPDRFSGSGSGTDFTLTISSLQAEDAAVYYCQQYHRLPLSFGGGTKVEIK

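Library AAYL50 holds single substitutions and randomly drawn double and triple substitutions in the CDRs. AlphaSeq pools MATa yeast showing the antibodies with MATalpha yeast showing the peptide. Binding brings cells together so that they mate, and sequencing counts the barcode pairs among the diploids. Scores were corrected for input abundance and mapped to Kd with protein pairs of known affinity run in the same pool. Each pool was mated in three replicate cultures.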

Substitutions are numbered in sequence along the VL above, starting at 1 (not Kabat). Scale: log10 of Kd in nM, estimated from mating counts; low values are strong binders. The mean shown is taken over the replicates in which the pair was detected. "nd" marks a missing value. The strain was present, yet no cells mated with the target were sequenced in any replicate, which points to weak or no binding.

"log10 Kd (nM), mean",seen in,changes
1.55,3/3,A57S/E61N
nd,0/3,V39G/A57D/H98K
4.21,1/3,S26C/S58L/L100F
3.82,2/3,S25R/K36R/N37W
2.39,3/3,L30C/N37G/W56T
nd,0/3,W56Q/Y97P/R99M
1.09,3/3,K24V/R99S
3.06,1/3,V29P/S38T/S58Y
nd,0/3,S28P/V39S/S62H
4.10,3/3,K36I/S38R/E61D
nd,0/3,N35L/K36T/Q95D
0.15,3/3,S26Q/R34N/S62H
0.33,3/3,S25M/V29H/E32N
1.60,3/3,S25T/Q27Y/Y31C
3.16,3/3,Q27C/S33R/H98V
nd,0/3,S25R/S26T
3.74,1/3,R34Y/N37W/H98W
4.36,1/3,S33R/Y97H
nd,0/3,Y31S/S58D/L102W
2.28,2/3,S25W/N37V/E61H
1.52,3/3,N37H/Y97E
1.33,3/3,S33D/N35F/L100Y
nd,0/3,S26W/P101F
0.85,3/3,E32A/W56Y/Q95N
1.37,3/3,Y31A/S33N/Q96T
nd,0/3,L30Q/A40V/A57R
2.80,3/3,R60L/S62T
1.79,3/3,S25G/E32D/K36R
3.28,2/3,S28V/E61Q/H98V
nd,0/3,V29M/K36M/Q95F
1.52,3/3,S26I/S58A/E61V
nd,0/3,V29G/N37L/R60K
4.34,1/3,Q27C/Y31G/A57R
5.33,3/3,K24N/V39R
3.50,3/3,S26G/R34P/L102M
2.58,3/3,V29F/L102D/S103F
1.41,3/3,Q27E/S28H/N35K
1.62,3/3,Y31S/E61T
nd,0/3,Y97N/P101M/S103N
0.95,3/3,S25A/S33Q/P101H
2.41,3/3,S26M/S58K
nd,0/3,N35Q/Y97D/S103G
4.73,3/3,S28H/S38F/Q96F
nd,0/3,L30C/L102V
4.10,1/3,S38Y/V39Y/R60A
nd,0/3,K24F/S62L/Q95N
2.70,1/3,K24Q/S28K/Y97F
1.78,3/3,Q27G/N35P/E61L
3.89,1/3,K24V/S38I/L102P
3.59,1/3,V29I/E32F/A57N
3.85,3/3,W56V/Q95I/Y97T

The opening 8 entries, copied out:

| changes | log10 Kd (nM), mean | seen in |
|---|---|---|
| A57S/E61N | 1.55 | 3/3 |
| V39G/A57D/H98K | nd | 0/3 |
| S26C/S58L/L100F | 4.21 | 1/3 |
| S25R/K36R/N37W | 3.82 | 2/3 |
| L30C/N37G/W56T | 2.39 | 3/3 |
| W56Q/Y97P/R99M | nd | 0/3 |
| K24V/R99S | 1.09 | 3/3 |
| V29P/S38T/S58Y | 3.06 | 1/3 |

Nonspecific signal, from three strains lacking the peptide, appeared in 18% of pairings of library AAYL50, centred on 4.19 (5% of these signals below 2.99); values are not corrected for it.